The values below come from PubChem BioAssay AID719 (SRMLSC, 2007).

The list shows a part of the results, in another mix than the full data. Activity calls are given as the source filed them.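 How the source made its calls: active means viability at or below 50% in the single dose screen; inactive means viability above 50%.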

This test is described as follows: antiproliferative effect on LL 47 fibroblasts – human, LL 47 cells, CellTiter-Glo luminescence, primary screen (AID 719).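 Further: compound exposure lasted 72 h before the ATP readout; 100% = median luminescence of untreated cell-only wells.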 The conditions noted are these: LL 47 human lung fibroblast viability, ATP luminescence; at 10 µM; active compounds read low. In short, it runs like this: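 material = human LL 47 lung fibroblast cells | dosing = compounds added from tenfold dosing solution, 0.1% DMSO final | timing = overnight cell rest, 72 h compound treatment at 37 °C | measured by = CellTiter-Glo luminescence measuring cellular ATP | evaluation = % viability versus median cells-only luminescence | control set = cell-only wells, no compound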
A general note: Cellular ATP, detected with luciferase, serves as a proxy for viable cell number.
In the case of `N/C(=N\O)c1c(N)no[n+]1[O-]`, the viability (as a rule, a read-out of living cells in per cent, often relative to untreated cells) was inactive: 109%.

On to `c1ccc(CN2CCC(Nc3ccccc3)CC2)cc1`, for which the viability is inactive: 99.7%.

Consider `Fc1ccccc1NC1CCN(Cc2ccccc2)CC1`, for which the viability is inactive: 92.2%.

For `CCOc1ncccc1C(=O)NCC1(N2CCOCC2)CCCCC1`, the viability was inactive: 98.2%.

Regarding `CCC(CO)(C(=O)OC1CN2CCC1CC2)c1ccccc1` (centres undefined), the viability is inactive: 94.7%.

As for `O=C(OC1CN2CCC1CC2)C1c2ccccc2Oc2ccccc21` (centres undefined), the viability is inactive: 104%.

On to `O=C(NCC1(N2CCOCC2)CCCCC1)c1cc2ccccc2o1`, for which the viability was inactive: 93.7%.

With `N#CC1(Nc2ccccc2)CCN(CCc2ccccc2)CC1`, the viability was inactive: 88.2%.

On to `O=C(NCC1(N2CCOCC2)CCCCC1)c1cc(=O)[nH]c2ccccc12`, for which the viability was inactive: 106%.
